Like-named read-outs stand apart in the source and are kept apart here.
Experiments:
[1] = Drug release from heat-molded pellets/articles in release buffer (PBS, 1% FBS in PBS or 100% FBS) at 37° C., HPLC quantification; assay type: physicochemical; settings: for Drug release mechanism of articles: articles that undergo physical form (shape) changes, FIGS. 26A and 26B
[2] = for Physical form of articles after two weeks: after two weeks in PBS, FIGS. 23D, 24D, 25D; for Physical form (shape) changes of articles: physiologically relevant conditions
[3] = microparticles, 50% FBS in PBS
[4] = FIGS. 26A and 26B (pellets in PBS at 37° C.)

Row | Substance | Drug release mechanism of articles [1] | Physical form of articles after two weeks [2] | Physical form (shape) changes of articles [2] | also measured
1 | Dexamethasone-Heptaethylene Glycol-Dexamethasone [Compound 11] | not via surface erosion | form into spherical droplets | undergo physical form (shape) changes | Dexamethasone release profile from articles [1, 4]: non-linear
2 | Dexamethasone-Hexane-Dexamethasone [Compound 5] | – | – | – | Dexamethasone release profile from articles [1]: generally linear; Period of dexamethasone release for which articles might be preferred [1]: ≥ 6 months
3 | Dexamethasone-Nonaethylene Glycol-Dexamethasone [Compound 12] | not via surface erosion | form into spherical droplets | undergo physical form (shape) changes | Dexamethasone release profile from articles [1, 4]: non-linear; Cumulative dexamethasone release at which release stops ([1]; after just 2 weeks in PBS): ca. 3%
4 | Dexamethasone-Polyethylene Glycol (MW = 200)-Dexamethasone [Compound 10] | – | – | – | Dexamethasone release profile from articles ([1]; over the course of 12 weeks or more, FIGS. 1E, 12E, 15C, 17D): generally linear
5 | Dexamethasone-Polyethylene Glycol (MW = 300)-Dexamethasone [Compound 13] | not via surface erosion | form into spherical droplets | undergo physical form (shape) changes | –
6 | Dexamethasone-Triethylene Glycol-Hydrocortisone [Compound 4] | – | – | – | Drugs released from pellets of heterodimer ([1]; PBS and/or 100% FBS, 37° C.): released both dexamethasone and hydrocortisone
7 | Triamcinolone Acetonide-Triethylene Glycol-Triamcinolone Acetonide [Compound 3] | – | – | – | Drug release from nano- and micro-particles in the glassy state [3]: Sustained Release

— patent US20190275167A1, “GLASS FORMULATIONS AND USES THEREOF” (priority 2018, published 2019)
